Key:
D2 dopamine receptor = D2 dopamine receptor (Homo sapiens, UniProt P14416); test: pKi for dopamine receptor D2 (Table 1); format: binding
5-HT1E receptor = 5-HT1E receptor (Homo sapiens, UniProt P28566); test: pKi for 5HT1E receptor (Table 1); format: binding

Protein sequences, listed by entry. Tags and fused reporters are not part of them. Lines headed by an entry give the natural chain unless they say otherwise; changes in a name come on top.
UniProt P14416, whole entry: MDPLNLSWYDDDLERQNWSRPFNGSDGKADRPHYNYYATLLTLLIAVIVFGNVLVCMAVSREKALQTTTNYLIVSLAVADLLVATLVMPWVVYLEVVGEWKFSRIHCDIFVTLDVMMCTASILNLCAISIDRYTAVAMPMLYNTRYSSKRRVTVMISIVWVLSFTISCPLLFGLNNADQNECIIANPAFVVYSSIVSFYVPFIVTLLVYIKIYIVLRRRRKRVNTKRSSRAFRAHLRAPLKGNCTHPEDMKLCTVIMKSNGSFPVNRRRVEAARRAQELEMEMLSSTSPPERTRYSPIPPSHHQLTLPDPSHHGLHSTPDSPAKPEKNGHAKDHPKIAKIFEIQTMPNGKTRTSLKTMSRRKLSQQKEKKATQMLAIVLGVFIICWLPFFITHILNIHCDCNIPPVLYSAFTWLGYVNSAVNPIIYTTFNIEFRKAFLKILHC
UniProt P28566: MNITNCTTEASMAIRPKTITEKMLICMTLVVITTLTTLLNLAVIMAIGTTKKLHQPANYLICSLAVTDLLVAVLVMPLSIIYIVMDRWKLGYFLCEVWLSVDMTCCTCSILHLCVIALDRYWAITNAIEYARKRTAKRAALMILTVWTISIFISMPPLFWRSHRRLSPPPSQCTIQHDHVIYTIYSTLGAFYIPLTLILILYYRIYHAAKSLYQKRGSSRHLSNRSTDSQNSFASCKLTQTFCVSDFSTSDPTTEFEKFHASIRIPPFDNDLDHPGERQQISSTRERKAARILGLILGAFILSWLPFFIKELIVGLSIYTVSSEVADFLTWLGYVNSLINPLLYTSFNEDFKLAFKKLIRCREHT

| Compound | pKi D2 (D2 dopamine receptor) | Ki (5-HT1E receptor) [nM] |
| --- | --- | --- |
| CCN1CCC[C@H]1CNC(=O)c1c(O)c(Cl)cc(Cl)c1OC (racemic) [Raciopride] | 8-9 |  |
| Cc1nc2n(c(=O)c1CCN1CCC(c3noc4cc(F)ccc34)CC1)CCCC2 [Risperidone] |  | > 1000 |

— patent US20120010242A1 (ALKERSTRAAT 30 A, priority 2009, published 2012)
